# Test system: Bastardhunde
# Assay: Coronary-dilating / haemodynamic effect in anaesthetised open-chest dogs (electromagnetic flowmeter, aortic catheter, tachograph)
# Conditions: Dosis i.v. 3 mg/kg in Propylenglykol, n = 5
# [1] = maximal effect in percent of baseline
structure (smiles),measurement,setting,value
Cc1nc(C(N)=O)c(C(=O)N[N+](=O)[O-])n1[C@@H]1O[C@H](CO[N+](=O)[O-])[C@@H](O[N+](=O)[O-])[C@H]1O[N+](=O)[O-],"BP [min] (arterieller Blutdruck, Wirkungsdauer)",duration of effect,>60 min
same,"CABF [min] (Coronarfluss, Wirkungsdauer)",duration of effect,>60 min
same,"HR [min] (Herzfrequenz, Wirkungsdauer)",duration of effect,20 min
same,"PL [min] (Druckgradient, Wirkungsdauer)",duration of effect,60 min
same,BP Δ % (arterieller Blutdruck),[1],-55%
same,CABF Δ % (Coronarfluss),[1],-30%
same,HR Δ % (Herzfrequenz),[1],+8%
same,"PL Δ % (Druckgradient, Aortadruck minus peripherem Coronardruck)",[1],-38%

# — EP0004261A2, “Imidazole derivatives, method for their preparation and pharmaceutical compositions containing them” (F. HOFFMANN-LA ROCHE & CO. Aktiengesellschaft, priority 1978, dated 1979)
